Data from ChEMBL document CHEMBL4715841, “Discovery of dihydropyrazino-benzimidazole derivatives as metabotropic glutamate receptor-2 (mGluR2) positive allosteric modulators (PAMs)” (Eur J Med Chem, 2020).

Sequences of proteins named here, by UniProt entry; tags and fusion partners are left off. A change or cut given only in a name is not applied to a line headed by its entry.
UniProt Q14416: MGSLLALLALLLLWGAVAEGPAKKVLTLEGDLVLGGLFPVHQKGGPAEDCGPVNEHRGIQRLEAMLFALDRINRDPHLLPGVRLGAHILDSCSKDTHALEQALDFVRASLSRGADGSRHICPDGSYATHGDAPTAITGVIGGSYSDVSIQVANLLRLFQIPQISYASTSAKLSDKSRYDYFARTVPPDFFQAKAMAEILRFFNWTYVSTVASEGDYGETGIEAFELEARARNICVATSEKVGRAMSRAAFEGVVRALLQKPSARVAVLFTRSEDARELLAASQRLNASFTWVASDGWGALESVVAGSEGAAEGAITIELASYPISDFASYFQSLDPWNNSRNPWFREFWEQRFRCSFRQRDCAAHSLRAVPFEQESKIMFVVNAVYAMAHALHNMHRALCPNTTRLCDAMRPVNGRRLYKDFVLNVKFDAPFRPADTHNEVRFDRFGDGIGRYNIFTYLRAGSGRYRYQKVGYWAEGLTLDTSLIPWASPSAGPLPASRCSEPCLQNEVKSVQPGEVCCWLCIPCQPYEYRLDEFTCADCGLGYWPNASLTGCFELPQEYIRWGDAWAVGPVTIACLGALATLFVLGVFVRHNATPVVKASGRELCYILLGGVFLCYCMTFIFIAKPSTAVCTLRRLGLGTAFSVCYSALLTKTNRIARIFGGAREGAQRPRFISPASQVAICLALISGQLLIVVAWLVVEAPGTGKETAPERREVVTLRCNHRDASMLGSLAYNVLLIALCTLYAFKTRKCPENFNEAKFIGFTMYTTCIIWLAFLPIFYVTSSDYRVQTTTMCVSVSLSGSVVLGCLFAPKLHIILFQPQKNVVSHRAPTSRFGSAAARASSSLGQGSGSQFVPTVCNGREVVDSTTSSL

Target: Metabotropic glutamate receptor 2 (Homo sapiens, UniProt Q14416)
Assay: Positive allosteric modulation of human mGlu2 receptor stably expressed in human Chem-1 cells assessed as potentiation of glutamate-induced intracellular calcium level t 1 uM preincubated for 30 mins followed by glutamate addition by fluorescence assay relative to control
Format: functional, cell-based

| Compound | Activity |
| --- | --- |
| c1ccc(CCN2CCn3c(nc4ccccc43)C2)nc1 | -10% |
| c1ccc(CN2CCn3c(nc4ccccc43)C2)cc1 | 2.7% |
| c1csc(CCN2CCn3c(nc4ccccc43)C2)c1 | 34% |

Now from value to compound:

| Activity | Compound |
| --- | --- |
| 36% | c1ccc2cc(CCN3CCn4c(nc5ccccc54)C3)ccc2c1 |
| 30% | O=C1Cn2c(nc3ccccc32)CN1CCCOc1ccc(Cl)c(Cl)c1 |
